# Source: ChEMBL document CHEMBL6083271 (J Med Chem, 2024)
# Test system: RS4-11
# Experiment: Antiproliferative activity against human RS4;11 cells assessed as inhibition of cell growth measured after 4 days by WST-8 assay
# Type: functional, cell-based
# Conditions: time 4.0 day; call rule not given here
structure (smiles),measurement,value
O=C1CCC(N2Cc3c(C#CC4CCN(C(=O)[C@H]5CC[C@H](NC(=O)[C@H]6NC7(CCCCC7)[C@]7(C(=O)Nc8cc(Cl)ccc87)[C@H]6c6cccc(Cl)c6F)CC5)CC4)cccc3C2=O)C(=O)N1 (stereo partly specified),Activity,Active; Compound Showed Weaker Cell Growth Inhibition
